Test results taken from patent USRE37101E, “Stabilized phosphate ester-based functional fluid compositions” (Solutia Inc., priority 1997, dated 2001).

Test system: Hen
Experiment: Hen neurotox
Assay type: in vivo

SMILES: CCCCOP(=O)(OCCCC)OCCCC
- LD50 (hen neurotox test level): 1500 mg/kg
